{"source": "patent US20100247707A1", "about": "“DIPEPTIDES AS FEED ADDITIVES” (EVONIK DEGUSSA GmbH, priority 2009, published 2010)", "origin": "cited, not measured here", "key": {"[1]": {"settings": "Baker et al. J. Nutr. 1982; cited from earlier work"}, "[2]": {"test_system": "chicken", "settings": "in chicken, Baker et al. J. Nutr. 1982; cited from earlier work"}}}
{"substance": "poly-L-methionine", "values": [{"measurement": "solubility in water", "setting": "[1]", "result": "completely insoluble"}, {"measurement": "bioavailability", "setting": "[2]", "result": "no bioavailability"}]}
